uPA generation – cell surface uPA generation inhibition; hit rate 0.31% among 330,000; Potency, µM (doses to about 38.3 µM), without a hit: at the top dose activity change, negative = inhibition, usual class: inhibitors; cell surface uPA generation assay, qHTS; active means well fitted inhibition curve with a large enough effect; inconclusive means small, poorly fitted or top-dose-only effect; inactive means no such curve, though single readings can be large or run the other way; tested in mouse RAW 264.7 cells; further: potency means the concentration at half of the fitted maximal effect; on the % scale 0 is the no-effect control and ±100 the full control effect; nearly all actives have a fitted effect of over 55% in size
miR-21 reporter – raises the signal of a miR-21 reporter | HeLa miR-21 FLuc reporter, luciferase, 48 h | Potency, µM (highest dose often 38.3 µM), for inactives: at the highest dose reporter change, positive = more light | 340,000 tested, under 10 active | AID 2288; active = well fitted rising curve with a large enough effect; inconclusive = small, poorly fitted or top-dose-only effect; inactive = no such curve, though single readings can be large or run the other way;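 also: % of control where 0% means no effect; miR-21 action dims this reporter so a rising signal means less miR-21 action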
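Using DMEM plus 10% FBS, HeLa miR-21-FLuc cells are incubated with test compounds (final up to about 40uM) for 48 hours; firefly luciferase signal is then imaged following reagent-mediated lysis.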
TDP1 inh – blocks human tyrosyl-DNA phosphodiesterase 1 | Q9NUW8 | recombinant TDP1, AlphaScreen DNA substrate cleavage | Potency, µM (highest dose often 130 µM), for the others: top-dose activity change, negative = inhibition, hits mostly inhibitors | hit rate 0.28% among 350,000 | AID 485290; further: potency means the concentration at half of the fitted maximal effect; on the % scale 0 is the no-effect control and ±100 the full control effect; nearly all actives have a fitted effect of over 40% in size
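Compounds were preincubated with Tdp1 (1 nM final) for 15 min at room temperature before substrate (15 nM final) started a 5 min reaction; beads (10 ug/ml final) were then added for 10 min before AlphaScreen detection.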
DT40 TDP1 CPT – DT40-hTDP1 cell growth loss with CPT; hit rate 12% among 420,000; chicken DT40 Tdp1-/-;hTDP1 cells + 20 nM CPT, ATP luminescence, 48 h; Potency, µM (doses to about 46.2 µM), for the others: at the top dose activity change, negative = growth inhibition, usual class: inhibitors; further: potency means the concentration at half of the fitted maximal effect; on the % scale 0 is the no-effect control and ±100 the full control effect; nearly all actives have a fitted effect of over 55% in size
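Cell growth measured by CellTiter-Glo luminescence after a minimum 48 h, 37 C compound exposure with 20 nM CPT in Tdp1-knockout DT40 cells stably expressing hTDP1, seeded 400/well; qHTS titration format.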
TDP1 cell noCPT – qHTS for Inhibitors of human tyrosyl-DNA phosphodiesterase 1 (TDP1): qHTS in cells in absence of CPT. DT40 Tdp1-/- hTDP1 cells, no CPT, ATP luminescence, 48 h. AID 686978, 2013. hit rate 15% among 420,000. Potency, µM (doses to about 46.2 µM), for the others: at the highest dose activity change, negative = growth inhibition, hits mostly inhibitors; further: potency means the concentration at half of the fitted maximal effect; on the % scale 0 is the no-effect control and ±100 the full control effect; nearly all actives have a fitted effect of over 55% in size
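DT40 Tdp1-/-;hTDP1 cells, no CPT (DMSO vehicle only), 400 cells/well; compounds pin-transferred; ≥48 hr, 37 °C; CellTiter-Glo 30 min RT dark, luminescence read.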
Active calls of the source: *; u = inconclusive; x = no result. Only some compounds are listed: those with a hit (about 16% of all), similar ones and a draw of the others. Unless noted, the call rests on the fitted dose curve; in most records, active means well fitted curve in the direction sought with a large enough effect; inconclusive means small, poorly fitted or top-dose-only effect, or another doubt; inactive means no such curve, though single readings can be large; an effect the other way counts as inactive or inconclusive.

Letters – A = uPA generation; B = miR-21 reporter; C = TDP1 inh; D = DT40 TDP1 CPT; E = TDP1 cell noCPT
CCOc1ccc(N(CC(=O)NCc2ccc(F)cc2)C(=O)c2ccco2)cc1
  A: 17%; B: 3%; C: 0%; D: 2%; E: u

Cc1cc(C)n2nc(SCCCC(=O)c3ccc(F)cc3)nc2n1
  A: -4%; B: -2%; C: 0%; D: u; E: u

CSc1nsc(SCC(=O)N2CCCc3ccccc32)n1
  A: 0%; B: -10%; C: 3%; D: u; E: 29µM*

O=C(CSc1n[nH]c(-c2ccccc2O)n1)N1CCCc2ccccc21
  A: -11%; B: 11%; C: 10%; D: u; E: 21µM*

Cc1ccnc(SCC(=O)N2CCCc3ccccc32)n1
  A: -25%; B: -22%; C: 2%; D: -3%; E: 1%

Cc1cc(C(=O)NC(C)C2CCCO2)cs1 (centres undefined)
  A: x; B: -4%; C: 2%; D: 3%; E: 0%

COC(=O)CCCCCNC(=S)Nc1ccc2[nH]c(=O)[nH]c2c1
  A: u; B: 4%; C: x; D: -3%; E: 21%

C=CCn1c(-c2ccccc2)nc(=S)c2c1CCCC2
  A: -2%; B: 0%; C: x; D: u; E: 23µM*

NC(=O)c1cccc(-c2cc(Nc3ccc(OC(F)(F)F)cc3)ncn2)c1
  A: 27%; B: 23%; C: 1%; D: u; E: 15µM*

O=C(Nc1ccc(OC(F)(F)F)cc1)c1ccc2nc[nH]c2c1
  A: -16%; B: -28%; C: x; D: -24%; E: u

COc1ccc(OC)c(S(=O)(=O)Nc2cccnc2)c1
  A: x; B: 0%; C: 7%; D: -4%; E: -26%

O=C1CSC(c2ccncc2)N1Cc1ccc(F)cc1 (centres undefined)
  A: 5%; B: 3%; C: 4%; D: -22%; E: -15%

c1ccc(-c2nnc3nc(N4CCCCC4)nc(N4CCCCC4)n23)cc1
  A: 6%; B: x; C: x; D: 18µM*; E: 15µM*

COc1ccc(OCCOc2ccc(/C=C3\C(=N)N4N=C(C)SC4=NC3=O)cc2)cc1
  A: 0%; B: x; C: 35µM*; D: 4%; E: -14%

CCC1CCCCN1C(=O)COC(=O)c1cc2ccccc2cc1O (centres undefined)
  A: 3%; B: -29%; C: -5%; D: -20%; E: u

CCOC(=O)c1cc(CC)sc1NC(=O)C1CC(=O)NN1Cc1ccccc1 (centres undefined)
  A: 13%; B: -7%; C: 5%; D: u; E: 16µM*

COC(=O)c1cc(C)sc1NC(=O)C1CC(=O)NN1Cc1ccccc1 (centres undefined)
  A: 6%; B: -14%; C: 2%; D: -27%; E: u

O=C1OC(c2ccccc2)(N(Nc2ccccc2)c2ccccc2)c2ccccc21 (centres undefined)
  A: x; B: x; C: x; D: u; E: 23µM*

O=C1OC(Oc2ccccc2)(c2ccccc2)c2ccccc21 (centres undefined)
  A: 3%; B: -4%; C: -8%; D: 5%; E: -29%

CCc1nc2c(OCc3ccc(F)cc3)cccn2c1N(C)C(=O)c1ccc(C)cc1
  A: x; B: x; C: x; D: 15µM*; E: u

CCc1nc2c(OCc3ccc(Cl)cc3)cccn2c1N(C)C(=O)c1ccco1
  A: x; B: x; C: x; D: 16µM*; E: 21µM*

CCOC(=O)C(=O)N(C)c1c(CC)nc2c(OCc3ccc(OC)cc3)cccn12
  A: x; B: x; C: x; D: u; E: -21%

CCc1nc2c(OCc3ccc(C(=O)OC)cc3)cccn2c1N(C)C(=O)c1ccc(C)cc1
  A: x; B: x; C: x; D: 23µM*; E: 18µM*

CCc1nc2c(OCc3ccc(C(=O)N(C)C)cc3)cccn2c1N(C)C(=O)c1ccc(C)cc1
  A: x; B: x; C: x; D: 1%; E: -23%

CCc1nc2c(OCc3ccc(C(F)(F)F)cc3)cccn2c1N(C)C(=O)c1ccncc1
  A: x; B: x; C: x; D: 16µM*; E: 16µM*

COn1c(=O)c(-c2ccc(F)cc2)[n+]([O-])c2ccccc21
  A: -9%; B: 1%; C: x; D: 9%; E: 1%

CCc1nc2c(OCc3ccc(F)c(F)c3)cccn2c1N(C)C(=O)c1ccncc1
  A: x; B: x; C: x; D: -10%; E: -27%

CCc1nc2c(OCc3ccc(F)c(F)c3)cccn2c1N(C)C(=O)c1cccs1
  A: x; B: x; C: x; D: u; E: 23µM*

Cc1cc(C)c(S(=O)(=O)NCCSCc2ccco2)c(C)c1
  A: -19%; B: x; C: 2%; D: u; E: u

Cc1ccc(C(=O)NC(=S)N2CCN(C)CC2)cc1
  A: -1%; B: -23%; C: 1%; D: -2%; E: 3%

CN1CCC(NC(=O)Nc2ccc(Br)cc2)CC1
  A: 3%; B: 4%; C: -1%; D: -15%; E: u

Fetched one by one from the list above, three records:
Letters – A = uPA generation; B = miR-21 reporter; C = TDP1 inh; D = DT40 TDP1 CPT; E = TDP1 cell noCPT
Cc1cc(C)c(S(=O)(=O)NCCSCc2ccco2)c(C)c1
  A: -19%; B: x; C: 2%; D: u; E: u

O=C1OC(Oc2ccccc2)(c2ccccc2)c2ccccc21 (centres undefined)
  A: 3%; B: -4%; C: -8%; D: 5%; E: -29%

C=CCn1c(-c2ccccc2)nc(=S)c2c1CCCC2
  A: -2%; B: 0%; C: x; D: u; E: 23µM*

Compound activity deposited in PubChem by National Center for Advancing Translational Sciences (NCATS).
